{"source": "PubChem BioAssay AID743287", "about": "(Broad Institute, 2014)", "note": "The list shows a part of the results, in another mix than the full data. Activity calls are given as the source filed them.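 The calls were made as follows: active = lowest replicate activation of at least 40%, so every replicate reaches that level; inactive = the rest.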", "data": [{"assay": "GLuc luminescence reporter in INS-1E cells, primary screen for activators of glucose-dependent secretion of insulin (AID 743287);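 also: 0% = median of neutral control wells and 100% = median of IBMX positive control wells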", "details": "INS-1E GLuc reporter insulin secretion, 2-3 h, at 16.6 µM, stronger effect = higher value", "values": [{"smiles": "CSc1ccccc1C(=O)NCC1(N2CCCCC2)CCCCC1", "activation": "inactive: 9.25%"}, {"smiles": "Cc1cccc(NC2(C#N)CCN(Cc3ccccc3)CC2)c1", "activation": "inactive: 7.53%"}, {"smiles": "O=C(NCC1(N2CCCCC2)CCCCC1)c1ccc(=O)[nH]c1", "activation": "inactive: -4.65%"}, {"smiles": "CCCCn1nnnc1C(c1cccs1)N1CCC(n2c(=O)[nH]c3ccccc32)CC1", "note": "(stereo not given)", "activation": "inactive: -9.81%"}, {"smiles": "CCCCn1nnnc1C(CC)N1CCC(n2c(=O)[nH]c3ccccc32)CC1", "note": "(stereo not given)", "activation": "inactive: -25.8%"}, {"smiles": "O=C(NCC1(N2CCCCC2)CCCCC1)c1cccs1", "activation": "inactive: 6.24%"}, {"smiles": "COc1ccc(C(=O)NCC2(N3CCCCC3)CCCCC2)cc1", "activation": "inactive: 5.18%"}, {"smiles": "CCC(c1nnnn1C1CCCC1)N1CCC(n2c(=O)[nH]c3ccccc32)CC1", "note": "(stereo not given)", "activation": "inactive: -27.9%"}, {"smiles": "COc1ccc(C(=O)NCC2(N3CCCCC3)CCCCC2)c(OC)c1OC", "activation": "inactive: 0.189%"}, {"smiles": "CC(C)(C)OC(=O)N1CCC(N(C(=O)c2ccccc2)c2ccc(F)cc2)CC1", "activation": "inactive: -14.1%"}, {"smiles": "CCOC(=O)N1CCC(Nc2ccc(OC)cc2)CC1", "activation": "inactive: -4.08%"}, {"smiles": "CCCCn1nnnc1C(c1ccc(OC)cc1)N1CCC(n2c(=O)[nH]c3ccccc32)CC1", "note": "(stereo not given)", "activation": "inactive: -17.7%"}, {"smiles": "O=c1[nH]c2ccccc2n1C1CCN(C(c2cc3ccccc3o2)c2nnnn2C2CCCCC2)CC1", "note": "(stereo not given)", "activation": "inactive: -9.36%"}, {"smiles": "O=C(OC1CN2CCC1CC2)C1c2ccccc2Oc2ccccc21", "note": "(stereo not given)", "activation": "inactive: 2%"}, {"smiles": "O=C(NCC1(N2CCCCC2)CCCCC1)c1ccc(Cl)s1", "activation": "inactive: 18.8%"}, {"smiles": "N#CC1(Nc2ccccc2)CCN(Cc2ccccc2)CC1", "activation": "inactive: -10.3%"}, {"smiles": "COc1ccc(Cl)cc1C(=O)NCC1(N2CCOCC2)CCCCC1", "activation": "inactive: 11.9%"}, {"smiles": "O=c1[nH]c2ccccc2n1C1CCN(C(c2ccccc2OC(F)(F)F)c2nnnn2C2CCCCC2)CC1", "note": "(stereo not given)", "activation": "inactive: -6.34%"}, {"smiles": "O=C(NCC1(N2CCCCC2)CCCCC1)c1ccc(Cl)nc1", "activation": "inactive: 0.011%"}, {"smiles": "Cc1cc(C)cc(N(C(=O)c2ccccc2)C2CCN(C(=O)OC(C)(C)C)CC2)c1", "activation": "inactive: -28.9%"}, {"smiles": "O=C(NCC1(N2CCCCC2)CCCCC1)c1ccc(F)cc1", "activation": "inactive: 0.163%"}, {"smiles": "CCCCOc1ccc(C(=O)NCC2(N3CCOCC3)CCCCC2)cc1", "activation": "inactive: -14.7%"}, {"smiles": "CCCCn1nnnc1C(c1cc2ccccc2o1)N1CCC(n2c(=O)[nH]c3ccccc32)CC1", "note": "(stereo not given)", "activation": "inactive: -11.3%"}, {"smiles": "O=P1(N(CCCl)CCCl)SCCCS1", "activation": "inactive: 4.62%"}, {"smiles": "CCOC(=O)N1CCC(Nc2ccc(F)cc2)CC1", "activation": "inactive: 3.59%"}, {"smiles": "CC(C)(C)n1nnnc1C(c1ccccc1)N1CCC(n2c(=O)[nH]c3ccccc32)CC1", "note": "(stereo not given)", "activation": "inactive: -4.34%"}, {"smiles": "O=c1[nH]c2ccccc2n1C1CCN(C(c2cccc3ccccc23)c2nnnn2C2CCCC2)CC1", "note": "(stereo not given)", "activation": "inactive: -28.8%"}, {"smiles": "COc1cc(C(=O)NCC2(N(C)C)CCCCC2)ccc1OC(F)F", "activation": "inactive: -8.49%"}, {"smiles": "O=c1[nH]c2ccccc2n1C1CCN(C(c2ccccc2)c2nnnn2C2CCCCC2)CC1", "note": "(stereo not given)", "activation": "inactive: -25.4%"}, {"smiles": "O=C(NCC1(N2CCCCC2)CCCCC1)c1cccc([N+](=O)[O-])c1", "activation": "inactive: 0.47%"}, {"smiles": "CSc1ccc(C(=O)NCC2(N3CCOCC3)CCCCC2)cc1", "activation": "inactive: -1.33%"}, {"smiles": "CCN1CCC(Nc2ccc(Cl)cc2)CC1", "activation": "inactive: -11.9%"}, {"smiles": "O=c1[nH]c2ccccc2n1C1CCN(C(c2ccccc2OC(F)(F)F)c2nnnn2C2CCCC2)CC1", "note": "(stereo not given)", "activation": "inactive: -21.6%"}, {"smiles": "CC(C)(C)n1nnnc1C(c1ccccc1OC(F)(F)F)N1CCC(n2c(=O)[nH]c3ccccc32)CC1", "note": "(stereo not given)", "activation": "inactive: -20.8%"}, {"smiles": "O=C(NCC1(N2CCCCC2)CCCCC1)c1ccc(OC(F)F)cc1", "activation": "inactive: -8.6%"}, {"smiles": "CCCCn1nnnc1C(c1cccc2ccccc12)N1CCC(n2c(=O)[nH]c3ccccc32)CC1", "note": "(stereo not given)", "activation": "inactive: -32.4%"}, {"smiles": "COc1ccc(NC2CCN(C(=O)OC(C)(C)C)CC2)cc1", "activation": "inactive: -8.42%"}, {"smiles": "CC(C)c1ccc(C(=O)NCC2(N3CCOCC3)CCCCC2)cc1", "activation": "inactive: 26.3%"}, {"smiles": "CN1CCN(CCOC(=O)C(O)(c2ccccc2)c2ccccc2)CC1", "activation": "inactive: 11%"}, {"smiles": "O=C(NCC1(N2CCOCC2)CCCCC1)c1cc(=O)[nH]c2ccccc12", "activation": "inactive: 3.42%"}, {"smiles": "COc1cc(C(=O)NCC2(N3CCCCC3)CCCCC2)ccc1OC(F)F", "activation": "inactive: -1.19%"}, {"smiles": "O=C(NCC1(N2CCCCC2)CCCCC1)c1cccc(C(F)(F)F)c1", "activation": "inactive: 28.7%"}, {"smiles": "CCCCn1nnnc1C(c1ccnc2ccccc12)N1CCC(n2c(=O)[nH]c3ccccc32)CC1", "note": "(stereo not given)", "activation": "inactive: -4.08%"}, {"smiles": "COc1cc(OC)c(C(=O)NCC2(N(C)C)CCCCC2)cc1OC", "activation": "inactive: -3.65%"}, {"smiles": "O=C(NCC1(N2CCOCC2)CCCCC1)c1cc(F)c(F)cc1Cl", "activation": "inactive: -1.84%"}, {"smiles": "CCC(c1nnnn1C(C)(C)C)N1CCC(n2c(=O)[nH]c3ccccc32)CC1", "note": "(stereo not given)", "activation": "inactive: -15%"}, {"smiles": "CN(C)c1cccc(C(=O)NCC2(N3CCCCC3)CCCCC2)c1", "activation": "inactive: -8.91%"}, {"smiles": "CC(C)c1ccc(NC2CCN(C(=O)OC(C)(C)C)CC2)cc1", "activation": "inactive: -48%"}, {"smiles": "Cc1ccc(C(=O)NCC2(N(C)C)CCCCC2)o1", "activation": "inactive: -2.68%"}, {"smiles": "CCCOc1ccc(C(=O)NCC2(N(C)C)CCCCC2)cc1OC", "activation": "inactive: 18.9%"}, {"smiles": "COc1ccc(C(c2nnnn2C2CCCC2)N2CCC(n3c(=O)[nH]c4ccccc43)CC2)cc1", "note": "(stereo not given)", "activation": "inactive: -16.4%"}, {"smiles": "O=C(NCC1(N2CCCCC2)CCCCC1)c1cncc(Br)c1", "activation": "inactive: -9.19%"}, {"smiles": "CN1CCC(Nc2cccc(F)c2)CC1", "activation": "inactive: 0.998%"}, {"smiles": "COc1ccc(C(=O)NCC2(N3CCOCC3)CCCCC2)cc1OC", "activation": "inactive: 7.3%"}, {"smiles": "O=c1[nH]c2ccccc2n1C1CCN(C(c2ccnc3ccccc23)c2nnnn2C2CCCC2)CC1", "note": "(stereo not given)", "activation": "inactive: -7.32%"}, {"smiles": "O=c1[nH]c2ccccc2n1C1CCN(C(c2cccs2)c2nnnn2C2CCCCC2)CC1", "note": "(stereo not given)", "activation": "inactive: -8.15%"}, {"smiles": "CCCCn1nnnc1C(c1ccccc1)N1CCC(n2c(=O)[nH]c3ccccc32)CC1", "note": "(stereo not given)", "activation": "inactive: -20.1%"}, {"smiles": "COc1cc(C(=O)NCC2(N3CCOCC3)CCCCC2)cc(OC)c1C", "activation": "inactive: -1.36%"}, {"smiles": "CCCCn1nnnc1C(c1cccc(OC)c1OC)N1CCC(n2c(=O)[nH]c3ccccc32)CC1", "note": "(stereo not given)", "activation": "inactive: -13.3%"}, {"smiles": "O=C(OC1CN2CCC1CC2)C1c2ccccc2C=Cc2ccccc21", "note": "(stereo not given)", "activation": "inactive: 16.3%"}, {"smiles": "O=c1[nH]c2ccccc2n1C1CCN(C(c2cccs2)c2nnnn2C2CCCC2)CC1", "note": "(stereo not given)", "activation": "inactive: -15.8%"}, {"smiles": "COc1cccc(C(c2nnnn2C(C)(C)C)N2CCC(n3c(=O)[nH]c4ccccc43)CC2)c1OC", "note": "(stereo not given)", "activation": "inactive: -6.94%"}, {"smiles": "CCOC(=O)N1CCC(Nc2ccc(C)cc2)CC1", "activation": "inactive: -11%"}, {"smiles": "CC(C)(C)OC(=O)N1CCC(N(C(=O)c2ccccc2)c2ccc(Cl)cc2)CC1", "activation": "inactive: -37.7%"}, {"smiles": "N#Cc1ccc(C(=O)NCC2(N3CCCCC3)CCCCC2)cc1", "activation": "inactive: 1.15%"}, {"smiles": "CC(C)(C)n1nnnc1C(c1cccc2ccccc12)N1CCC(n2c(=O)[nH]c3ccccc32)CC1", "note": "(stereo not given)", "activation": "inactive: 10.2%"}, {"smiles": "C/C(N)=N\\P(=O)(Oc1ccccc1)Oc1ccccc1", "activation": "inactive: 2.35%"}, {"smiles": "CCCN1CCC(Nc2cc(OC)cc(OC)c2)CC1", "activation": "inactive: -9.75%"}, {"smiles": "O=c1[nH]c2ccccc2n1C1CCN(C(c2ccccc2)c2nnnn2C2CCCC2)CC1", "note": "(stereo not given)", "activation": "inactive: -4.62%"}, {"smiles": "Cc1cc(N(CCCl)CCCl)ccc1C=O", "activation": "inactive: -0.345%"}, {"smiles": "CN(C)C1(CNC(=O)c2cccc(C#N)c2)CCCCC1", "activation": "inactive: 0.239%"}, {"smiles": "Cc1ccc(C(=O)NCC2(N3CCCCC3)CCCCC2)o1", "activation": "inactive: 11.1%"}, {"smiles": "Fc1ccccc1NC1CCN(Cc2ccccc2)CC1", "activation": "inactive: 22.2%"}, {"smiles": "O=c1[nH]c2ccccc2n1C1CCN(C(c2ccnc3ccccc23)c2nnnn2C2CCCCC2)CC1", "note": "(stereo not given)", "activation": "inactive: -19.5%"}, {"smiles": "COc1cc(OC)cc(C(=O)NCC2(N3CCCCC3)CCCCC2)c1", "activation": "inactive: 7.34%"}, {"smiles": "CC(=O)N(c1ccccc1)C1CCNCC1", "activation": "inactive: -3.86%"}, {"smiles": "COc1cccc(C(c2nnnn2C2CCCCC2)N2CCC(n3c(=O)[nH]c4ccccc43)CC2)c1OC", "note": "(stereo not given)", "activation": "inactive: -26.2%"}, {"smiles": "CCC(c1nnnn1C1CCCCC1)N1CCC(n2c(=O)[nH]c3ccccc32)CC1", "note": "(stereo not given)", "activation": "inactive: -18.4%"}, {"smiles": "O=C(NCC1(N2CCCCC2)CCCCC1)c1ccco1", "activation": "inactive: 12.1%"}, {"smiles": "Cn1c(=O)[nH]cc(N(CCCl)CCCl)c1=O", "activation": "inactive: 34.8%"}, {"smiles": "CN(C)c1ccc(C(=O)NCC2(N3CCCCC3)CCCCC2)cc1", "activation": "inactive: -6.68%"}, {"smiles": "Cc1ccccc1NC1(C#N)CCN(Cc2ccccc2)CC1", "activation": "inactive: 9.95%"}, {"smiles": "CC(C)(C)n1nnnc1C(c1ccnc2ccccc12)N1CCC(n2c(=O)[nH]c3ccccc32)CC1", "note": "(stereo not given)", "activation": "inactive: -28.1%"}, {"smiles": "COc1ccc(C(c2nnnn2C2CCCCC2)N2CCC(n3c(=O)[nH]c4ccccc43)CC2)cc1", "note": "(stereo not given)", "activation": "inactive: 4.6%"}, {"smiles": "CCN1CCC(Nc2cccc(F)c2)CC1", "activation": "inactive: 7.44%"}, {"smiles": "CCCOc1ccc(C(=O)NCC2(N(C)C)CCCCC2)cc1", "activation": "inactive: -2.88%"}, {"smiles": "O=c1[nH]c2ccccc2n1C1CCN(C(c2cc3ccccc3o2)c2nnnn2C2CCCC2)CC1", "note": "(stereo not given)", "activation": "inactive: 5.45%"}, {"smiles": "CC(C)(C)OC(=O)N1CCC(Nc2ccccc2)CC1", "activation": "inactive: -21.5%"}, {"smiles": "NN(c1ccccc1)C1CCN(CCc2ccccc2)CC1", "activation": "inactive: -21.1%"}, {"smiles": "O=C(O)C1(Nc2ccccc2)CCN(Cc2ccccc2)CC1", "activation": "inactive: -5.87%"}, {"smiles": "CN1CCC(Nc2ccc(F)c(Cl)c2)CC1", "activation": "inactive: -7.92%"}, {"smiles": "CN1CCC(Nc2ccc(Cl)cc2)CC1", "activation": "inactive: 3.81%"}, {"smiles": "COc1cccc(C(=O)N(c2cc(C)cc(C)c2)C2CCN(C(=O)OC(C)(C)C)CC2)c1", "activation": "inactive: -27.1%"}, {"smiles": "COc1cc(OC)cc(C(=O)NCC2(N3CCOCC3)CCCCC2)c1", "activation": "inactive: 8.89%"}, {"smiles": "COc1cccc(C(c2nnnn2C2CCCC2)N2CCC(n3c(=O)[nH]c4ccccc43)CC2)c1OC", "note": "(stereo not given)", "activation": "inactive: -14.3%"}]}]}
